Molecular target: Cholinesterase (Homo sapiens, UniProt P06276)

Amino acid sequences for entries named in this document (tags omitted).
UniProt P06276, whole entry: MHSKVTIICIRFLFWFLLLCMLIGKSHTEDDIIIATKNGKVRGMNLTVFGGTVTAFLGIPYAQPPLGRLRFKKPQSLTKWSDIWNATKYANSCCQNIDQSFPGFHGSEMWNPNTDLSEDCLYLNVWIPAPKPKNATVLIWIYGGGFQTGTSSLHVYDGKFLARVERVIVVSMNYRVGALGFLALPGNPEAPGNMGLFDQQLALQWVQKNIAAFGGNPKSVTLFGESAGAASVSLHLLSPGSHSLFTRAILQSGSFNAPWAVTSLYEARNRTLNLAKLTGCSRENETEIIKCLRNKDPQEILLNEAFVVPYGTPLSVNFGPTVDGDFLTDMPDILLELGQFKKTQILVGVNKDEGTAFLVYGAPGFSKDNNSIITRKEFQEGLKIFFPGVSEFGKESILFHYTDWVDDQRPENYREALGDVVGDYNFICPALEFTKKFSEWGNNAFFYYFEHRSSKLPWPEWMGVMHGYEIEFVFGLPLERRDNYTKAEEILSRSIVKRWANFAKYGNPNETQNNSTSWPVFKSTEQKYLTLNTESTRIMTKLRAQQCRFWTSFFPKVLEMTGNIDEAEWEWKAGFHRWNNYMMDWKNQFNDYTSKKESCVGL

With `CCN(C)C(=O)Oc1cccc([C@H](C)N(C)C)c1` [RIVASTIGMINE] the IC50 was 0.37 µM.
